Binding of CDR-mutated scFvs to a peptide of the spike HR2 region

Data: MIT Lincoln Laboratory AlphaSeq set, Li et al. 2023, doi:10.1038/s41467-023-39022-2, as distributed in FLAb.

All variants were tested on one target, the spike HR2 peptide PDVDLGDISGINAS (SARS-CoV-2).

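The starting antibody came from a phage panning campaign against this peptide. Designed CDR sequences, proposed from the first random library and measured here. Group labels follow the data file (Ctrl: baseline library sampled from a position-specific scoring matrix, with some repeated check sequences; Rand: our label for a block that the file lists under HC and that is probably the random mutants of the ten best first-round binders; En: ensemble of fine-tuned language models; GP: Gaussian process model; GPLM: also part of the Gaussian process libraries; HC: hill climbing; Gen: genetic algorithm; Gibbs: Gibbs sampling; a sequence that several methods proposed may carry one label only). Affinity was read by AlphaSeq, a pooled yeast mating assay with surface-displayed partners. The frequency of each diploid, read from paired DNA barcodes, reflects how well the two displayed proteins bind. Scores were corrected for input abundance and mapped to Kd with protein pairs of known affinity run in the same pool. The assay was run in six technical replicates.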

Ab-14 is the parent antibody, in scFv form: VH, then three GGGGS repeats, then VL. The light chain is unchanged in all variants.
VH: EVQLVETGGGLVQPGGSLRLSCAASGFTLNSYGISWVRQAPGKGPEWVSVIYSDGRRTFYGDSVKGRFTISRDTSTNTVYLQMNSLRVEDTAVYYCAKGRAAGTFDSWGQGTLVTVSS
VL: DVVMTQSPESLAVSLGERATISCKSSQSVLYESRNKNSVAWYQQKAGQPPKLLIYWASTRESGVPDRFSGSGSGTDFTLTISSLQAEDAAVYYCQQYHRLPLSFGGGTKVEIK

Variants are written as CDR1, CDR2 and CDR3 of the heavy chain (limits as in the source). Parent: GFTLNSYGIS, VIYSDGRRTFYGDSVK, GRAAGTFDS.
Values are apparent Kd, the geometric mean of the replicates that gave a signal; lower means stronger binding.
An entry "not detected" has no value in the source: the pair was not observed among the diploids in any replicate. This suggests poor binding but is not conclusive.
Three control strains display no target. For all heavy chain designs, 1% of the pairings with them gave a signal, with a median of 120 nM and one signal in twenty below 7.0 nM, so weak values seen in few replicates may be background. Also given: how often the same scFv was detected with the empty control strains.

| # | CDR-H1 | CDR-H2 | CDR-H3 | group | apparent Kd | seen in | signal with controls |
|---|---|---|---|---|---|---|---|
| 1 | GFTLESYGIS | VIYSDGRRTFYADSVK | GRQAGTFDS | GPLM_Gen | 67 nM | 5/6 | 1/18 |
| 2 | GFTLDSYGIS | VIYRDGRRTFYGDSVK | GRRAGTYLS | Rand | not detected | 0/6 | 0/18 |
| 3 | GFDLNEYGIS | VIYADGVRTAYIDSVK | GNNAGTFDV | En_Gen | 1.4 nM | 6/6 | 0/18 |
| 4 | GFDLNEYGIS | VIYADGIRTFYADSVK | GNAAGTFDE | En_HC | 63 pM | 5/6 | 0/18 |
| 5 | GFTLNEYGIS | VIYSDGRRTFYTDSVK | GRAAGTFTL | GP_HC | 690 pM | 6/6 | 0/18 |
| 6 | GFTLNEYGIS | VIYSDGSRTFYTDSVK | GRQAGTFDS | GPLM_HC | 47 nM | 6/6 | 1/18 |
| 7 | GDFLDEYGIS | VIYADGMRSSYSNDVK | GNNFGNKMV | En_Gibbs | not detected | 0/6 | 1/18 |
| 8 | GFTLNSYGIS | VIYSDGRRTFYDDNVK | GQTAGTFDT | GP_HC | 6.2 nM | 6/6 | 0/18 |
| 9 | GFDLNEYGIS | VIYADGRRTFYSDSVK | GGVAGTFDV | En_HC | 120 pM | 6/6 | 0/18 |
| 10 | GKTLNSYGIS | VIYSDGHRTFYDDSVK | GQLAGIFDS | Rand | not detected | 0/6 | 0/18 |
| 11 | GFTLNEYGIS | VIYSDGRRTFYDDSVK | GRCAGTFDS | GP_HC | 22 nM | 6/6 | 0/18 |
| 12 | GFDLNSYGIS | VIYSDGRRTFYGDSVK | GEAAGSFDS | GPLM_HC | 230 pM | 1/6 | 0/18 |
| 13 | GFDLEKYGIS | VIYADGYRSAYASNVK | GGHAGTFHF | En_Gibbs | 4.5 nM | 6/6 | 0/18 |
| 14 | GFSINEYGIS | VIYADGNRSAYIDAVK | GNWGSSFLE | En_Gibbs | not detected | 0/6 | 1/18 |
| 15 | GRDIEEYGIS | VIYADGVRTVYHDSVK | GQVAGFFIT | En_Gibbs | not detected | 0/6 | 0/18 |
| 16 | GFDLNEYGIS | VIYADGMRTGYADSVK | GQNAGTFDF | En_HC | 6.1 nM | 4/6 | 0/18 |
| 17 | MFDLNSYGIS | VIYSDGRRTFYGDSVK | GKTAGTFDS | GP_Gen | 17 nM | 6/6 | 0/18 |
| 18 | GEQLEEYGIS | VIYADGRRTAYSQSVK | GLNGGIIDV | En_Gibbs | not detected | 0/6 | 0/18 |
| 19 | GFNLNEYGIS | VIYADGRRTFYADSVK | GQIAGTFNV | En_HC | 660 pM | 6/6 | 0/18 |
| 20 | GFVLNDYGIS | VIYSDGRRTFYIDSVK | GRTAGTFDS | GP_Gibbs | 85 nM | 2/6 | 0/18 |
| 21 | GFDLNEYGIS | VIYADGRRTYYIDSVK | GEQAGTFDS | En_HC | 330 pM | 6/6 | 0/18 |
| 22 | GFDLNEYGIS | VIYADGQRTAYADSVK | GEIAGTFDV | En_Gen | 450 pM | 6/6 | 0/18 |
| 23 | GFDLDEYGIS | VIYADGMRTAYSDDVK | GNVAGTFDI | En_Gen | 340 pM | 6/6 | 1/18 |
| 24 | GFDLNEYGIS | VIYADGKRTAYVDDVK | GNNAGTFDV | En_Gen | 2.3 nM | 5/6 | 0/18 |
| 25 | GFSLNEYGIS | VIYSDGRRTFYGDSVK | GQAAGTFDC | GPLM_Gen | 25 nM | 2/6 | 2/18 |
| 26 | GFTLNSYGIS | VIYSDGRRTAYIGSVA | GLAAGEFDS | Ctrl | not detected | 0/6 | 0/18 |
| 27 | GFTLNSYGIS | VIYSDGRRTFYSDDVK | HRAAGTFDH | Ctrl | not detected | 0/6 | 0/18 |
| 28 | GFDLNEYGIS | VIYADGRRTAYADSVK | GNTAGTFDS | En_HC | 830 pM | 6/6 | 0/18 |
| 29 | GFTLNSYGIS | VIYSDGRRTFYADNVK | GQAAGTFDT | GP_Gibbs | 16 nM | 5/6 | 0/18 |
| 30 | GFNLDEYGIS | VIYADGMRTFYADSVK | GNVAGTFDV | En_Gen | 390 pM | 6/6 | 0/18 |
| 31 | GFTLNSYGIS | VIYSDGRRTFYGDSVK | GRTAGTFDT | GPLM_Gen | 9.6 nM | 4/6 | 1/18 |
| 32 | GFDLDEYGIS | VIYADGMRTAYADSVK | GNQAGTFDI | En_Gen | 370 pM | 6/6 | 0/18 |
| 33 | GFSLNCYGIS | VIYSDGRRTAYGDSVK | GRAAGTFDS | GP_Gen | 730 pM | 6/6 | 0/18 |
| 34 | GFTLQSYGIS | VIYSDGFRTFYGDSVK | GRAAGTFDS | Ctrl | 93 nM | 2/6 | 0/18 |
| 35 | GFDLNSYGTS | VIYSDGRHTFYGDSVK | GRAAGWFNS | Rand | not detected | 0/6 | 0/18 |
| 36 | GFDLGEYGVS | VIYADGLRAQYASKVK | GNFSGNITV | En_Gibbs | not detected | 0/6 | 0/18 |
| 37 | GFALNSYGVS | VIYADGRRTFYHDSVK | GRTAGTGDM | Ctrl | not detected | 0/6 | 0/18 |
| 38 | GFDLNSYGIS | VIYSDGRRTFYGDSVK | GNAAGTFDQ | GP_Gen | 4.4 nM | 6/6 | 0/18 |
| 39 | IFTLNEYGIS | VIYSDGRRTFYGDSVK | GRAAVTFDQ | GP_HC | not detected | 0/6 | 0/18 |
| 40 | GFSLNSYGIS | VIYSDGRRTQYIDSVK | GRAAGTFDS | GP_HC | 11 nM | 6/6 | 0/18 |
| 41 | GFTLNSYGIS | VIYSDGRRTFYGDSVK | GRAAGTFDM | Ctrl | 180 nM | 4/6 | 0/18 |
| 42 | GFSLNSYGIS | VIYSDGRRTFYIDSVK | GQEAGTFDS | GPLM_Gen | 11 nM | 6/6 | 0/18 |
| 43 | GFDLNEYGIS | VIYADGMRTAYADSVK | GNVAGTFTL | En_Gen | 1.0 nM | 6/6 | 0/18 |
| 44 | GFDLDEYGIS | VIYADGSRTAYSKNVK | GGFDDKVIV | En_Gibbs | not detected | 0/6 | 0/18 |
| 45 | GFSLNDYGIS | VIYSDGRRTFYGDSVK | GRAALTFDT | GPLM_HC | not detected | 0/6 | 0/18 |
| 46 | GFDLNEYGIS | VIYADGMRTFYSDSVK | GNVAGTFDV | En_Gen | 750 pM | 6/6 | 0/18 |
| 47 | GFELNNYGIS | VIYSDGRRTFYGDRVK | GQTAGTFDS | GP_Gibbs | 5.4 nM | 5/6 | 0/18 |
| 48 | GFTLNEYGIS | VIYSDGRRVFYHDSVR | GRAAGTFDS | Ctrl | 31 nM | 6/6 | 1/18 |
| 49 | GFDLDEYGIS | VIYADGHRTFYADSVK | GTNAGTFDV | En_HC | 320 pM | 6/6 | 0/18 |
| 50 | GFTLNSYGIS | VIYSDGRRTFYADSVK | GRAAGTFDL | Ctrl | 12 nM | 5/6 | 0/18 |
| 51 | GFDIDEYGIS | VIYADGRRSFYADSVK | GTNAGTFDI | En_HC | 2.1 nM | 6/6 | 2/18 |
| 52 | GFTLSMYGIS | VIYSDGMRTFYGDSVK | GQAAGTFDS | Ctrl | 510 nM | 2/6 | 0/18 |
| 53 | GFTLGEYGIS | VIYSDGRRTFYGDSVK | GRAAVTFDQ | Rand | not detected | 0/6 | 0/18 |
| 54 | GFDLNEYGIS | VIYADGMRTFYADSVK | GQAAGTFDS | En_HC | 180 pM | 6/6 | 0/18 |
| 55 | GEDLDEYGIS | VIYADGRRQYYANNVK | GDINDVDDL | En_Gibbs | not detected | 0/6 | 0/18 |
| 56 | GFTLNSYGIS | VIYSDGRRTFYSDSVK | GYFAGTFDS | Ctrl | 120 nM | 4/6 | 0/18 |
| 57 | GFTLNSYGIS | VIYSDGRRTFYSDSVK | GKAAGTFDW | GP_HC | 35 nM | 6/6 | 0/18 |
| 58 | GFDLDEYGIS | VIYADGRRTYYQDSVK | GNVAGTFDS | En_HC | 330 pM | 6/6 | 0/18 |
| 59 | GFDLDEYGIS | VIYADGKRTAYADNVK | GEVAGTFDQ | En_Gen | 320 pM | 6/6 | 0/18 |
| 60 | GFDLDEYGIS | VIYADGRRTFYIDSVK | GETAGTFDK | En_HC | 1.0 nM | 6/6 | 0/18 |
| 61 | GFELNSYGIS | VIYSDGKRTFYGDKVK | GRTAGTFDS | GP_Gen | 1.8 nM | 6/6 | 0/18 |
| 62 | GFELNMYGIS | VIYSDGRRTFYGDSVK | GRQAGTFDS | GPLM_Gibbs | 30 nM | 5/6 | 0/18 |
| 63 | GFTLNSYGIS | VIYSDGRRTFYADSVK | GKAAGTFDL | GPLM_HC | 8.7 nM | 2/6 | 0/18 |
| 64 | GETLNSYGIS | VIYSDGRRTFYGDSVK | GRAEGTFDS | Ctrl | not detected | 0/6 | 0/18 |
| 65 | GFDLNEYGIS | VIYADGRRTFYADSVK | GEFAGTFDE | En_HC | 1.8 nM | 6/6 | 0/18 |
| 66 | GFSLNSYGIS | VIYSDGRRTFYIDSVK | GQAAGTFDQ | GP_Gen | 19 nM | 6/6 | 0/18 |
| 67 | GFDLNEYGIS | VIYADGMRTFYVDSVK | GQVAGTFDV | En_HC | 230 pM | 6/6 | 0/18 |
| 68 | GFDLNEYGIS | VIYADGFRTFYTDSVK | GEVAGTFDT | En_HC | 810 pM | 6/6 | 0/18 |
| 69 | QFTLNSYGIS | VQYSDGRRTQYGDSVK | GRQAGHFDS | Ctrl | not detected | 0/6 | 0/18 |
| 70 | GFCLNSYGIS | VIYSDGVRTFYRDSVK | GTVAGTFDS | Ctrl | 1.2 nM | 6/6 | 0/18 |
| 71 | NFTLESYGIS | VIYADGRRTFYGDSVK | GRAAGTFDS | GP_HC | 42 nM | 6/6 | 1/18 |
| 72 | GFDLNEYGIS | VIYADGRRTFYADSVK | GKNAGTFNV | En_HC | 150 pM | 6/6 | 0/18 |
| 73 | GFNINEYGIS | VIYADGQRLSYDDKVK | GNITGTFNS | En_Gibbs | 3.4 nM | 6/6 | 0/18 |
| 74 | GFSLNSYGIS | VIYSDGRRTFYGDSVK | GKAAGTFDA | GPLM_HC | 13 nM | 6/6 | 0/18 |
| 75 | GFALNSYGIS | VIYSDGRRTFYGDQVK | QRAVGTFDS | Ctrl | not detected | 0/6 | 0/18 |
| 76 | GFSLNSYGIS | VIYSDGRRTFYIDSVK | GATAGTFDS | GP_Gibbs | 30 nM | 5/6 | 0/18 |
| 77 | GFNLNEYGIS | VIYADGKRTFYADSVK | GEHAGSFDI | En_HC | 610 pM | 6/6 | 0/18 |
| 78 | GFDLNSYGIS | VIYSDGRRTFYVDSVK | GRVAGTFDS | GPLM_Gibbs | 9.6 nM | 6/6 | 0/18 |
| 79 | GFDLNEYGIS | VIYADGRRTYYADSVK | GENAGTFDL | En_Gen | 410 pM | 6/6 | 0/18 |
| 80 | GFSLNQYGIS | VIYSDGMRTFYSDSVK | GRAAGTFDS | GPLM_HC | 910 pM | 6/6 | 0/18 |

The opening 12 entries, copied out:

| CDR-H1 | CDR-H2 | CDR-H3 | group | apparent Kd | seen in | signal with controls |
|---|---|---|---|---|---|---|
| GFTLESYGIS | VIYSDGRRTFYADSVK | GRQAGTFDS | GPLM_Gen | 67 nM | 5/6 | 1/18 |
| GFTLDSYGIS | VIYRDGRRTFYGDSVK | GRRAGTYLS | Rand | not detected | 0/6 | 0/18 |
| GFDLNEYGIS | VIYADGVRTAYIDSVK | GNNAGTFDV | En_Gen | 1.4 nM | 6/6 | 0/18 |
| GFDLNEYGIS | VIYADGIRTFYADSVK | GNAAGTFDE | En_HC | 63 pM | 5/6 | 0/18 |
| GFTLNEYGIS | VIYSDGRRTFYTDSVK | GRAAGTFTL | GP_HC | 690 pM | 6/6 | 0/18 |
| GFTLNEYGIS | VIYSDGSRTFYTDSVK | GRQAGTFDS | GPLM_HC | 47 nM | 6/6 | 1/18 |
| GDFLDEYGIS | VIYADGMRSSYSNDVK | GNNFGNKMV | En_Gibbs | not detected | 0/6 | 1/18 |
| GFTLNSYGIS | VIYSDGRRTFYDDNVK | GQTAGTFDT | GP_HC | 6.2 nM | 6/6 | 0/18 |
| GFDLNEYGIS | VIYADGRRTFYSDSVK | GGVAGTFDV | En_HC | 120 pM | 6/6 | 0/18 |
| GKTLNSYGIS | VIYSDGHRTFYDDSVK | GQLAGIFDS | Rand | not detected | 0/6 | 0/18 |
| GFTLNEYGIS | VIYSDGRRTFYDDSVK | GRCAGTFDS | GP_HC | 22 nM | 6/6 | 0/18 |
| GFDLNSYGIS | VIYSDGRRTFYGDSVK | GEAAGSFDS | GPLM_HC | 230 pM | 1/6 | 0/18 |

In the paper, a design with two or fewer of six values counts as a poor binder.
Values of this round are not directly comparable with the first-round values of the same sequences.